# Measured values: ChEMBL document CHEMBL1148277, “Synthesis and pharmacological evaluation of 3-(3,4-dichlorophenyl)-1-indanamine derivatives as nonselective ligands for biogenic amine transporters” (J Med Chem, 2004)
# Protein sequences, listed by entry. Tags and fused reporters are not part of them.
# UniProt P23977, whole entry: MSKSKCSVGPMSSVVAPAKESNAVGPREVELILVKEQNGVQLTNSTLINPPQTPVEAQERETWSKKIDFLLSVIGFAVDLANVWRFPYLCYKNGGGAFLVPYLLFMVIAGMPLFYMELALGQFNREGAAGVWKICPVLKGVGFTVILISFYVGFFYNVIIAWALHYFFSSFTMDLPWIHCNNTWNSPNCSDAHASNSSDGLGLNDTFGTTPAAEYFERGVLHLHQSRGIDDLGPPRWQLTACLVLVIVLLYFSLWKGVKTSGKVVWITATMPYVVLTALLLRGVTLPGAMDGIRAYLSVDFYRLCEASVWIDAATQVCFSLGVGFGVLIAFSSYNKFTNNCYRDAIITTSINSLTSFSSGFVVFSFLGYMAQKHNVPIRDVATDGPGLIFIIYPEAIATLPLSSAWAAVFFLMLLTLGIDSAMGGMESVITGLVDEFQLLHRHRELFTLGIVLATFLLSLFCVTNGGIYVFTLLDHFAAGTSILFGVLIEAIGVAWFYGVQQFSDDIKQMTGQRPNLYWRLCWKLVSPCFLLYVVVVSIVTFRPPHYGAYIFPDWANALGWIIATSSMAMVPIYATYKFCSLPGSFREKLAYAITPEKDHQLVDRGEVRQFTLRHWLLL
# Biological target: Sodium-dependent dopamine transporter (Rattus norvegicus, UniProt P23977)
# Assay: Reuptake inhibitory activity against dopamine DA transporter
structure (smiles),measurement,value
CNC1CC(c2ccc(Cl)c(Cl)c2)c2ccccc21 (stereo unspecified) [INDATRALINE],Ki,2 nM
